According to US20250114473A1, “COMPOUND FOR CONJUGATION, CONJUGATE AND PHARMACEUTICAL COMPOSITION COMPRISING THE SAME” (priority 2023, published 2025):

Experiments:
Experiment in all cases: Cell toxicity testing of moiety-drug conjugates (CCK-8)
Assay type in all cases: cell-based
Details in all cases: 0-500 nM
SK-BR-3 (HER2 3+) = test system: SK-BR-3 (HER2 3+)
Method: (§1) The experiment involved optimizing seeding densities (1.5×10^3 to 1.5×10^4 cells/well) for each cell line (SK-BR-3, MCF-7, MDA-MB-231, MDA-MB-436) in 90 IL, of culture medium per well in a 96-well plate for 2-hour incubation. Next, 10 μL of a series of diluted ADC solutions (0-500 nM) were added to each well. The concentration of each ADC solution and measurements at four time points (24, 48, 72, and 96 hours) were conducted in triplicate. […] Data analysis was performed with GraphPad Prism 8.0.1, employing a four-parameter logistic curve-fit program.

MDA-MB-231 (HER2−) = test system: MDA-MB-231 (HER2−)
Method: as §1

MDA-MB-436 (HER2−) = test system: MDA-MB-436 (HER2−)
Method: as §1

MCF-7 (HER2 1+) = test system: MCF-7 (HER2 1+)
Method: as §1

| Substance | IC50 (SK-BR-3 (HER2 3+)) | IC50 (MDA-MB-231 (HER2−)) | IC50 (MDA-MB-436 (HER2−)) | IC50 (MCF-7 (HER2 1+)) |
| --- | --- | --- | --- | --- |
| Enhertu (EU) | 0.222 nM | 183 nM | > 250 nM | – |
| Kadcyla (EU) [reference compound] | 0.113 nM | 81.8 nM | 47.2 nM | 27.8 nM |
